Measurements: patent US20170266266A1, “Functions of 55 Newfound Proteins and Their Medicinal Application in the Treatment and Prevention of Disease” (priority 2012, published 2017)

System: SK-OV-3-luc ovarian cancer
Test: Ovarian cancer survival in mice
Assay type: in vivo
Text: Ovarian cancer study has been conducted at Wuxi AppTec under Dr. Yong Cang and the study is still ongoing as of Aug. 4, 2013. However in order to show the comparison mean days of the death of the mice in each group to compare with the positive drug group which has 76.8 days.
Bioluminescent images of RAAS-20120628-SK-OV-3-luc for all groups.
At day 63 after ovarian cancer has started an experiment of Kieu Hoang AFCC TM by oral application of four mice left from the entire group. That means that by day 63 ovarian cancer has already developed. In the beginning we forced the mice to drink without water, therefore the mice died in early stage.

B1: AFOD RAAS 108: from A1AT from fraction IV (protein, UniProt P01009 25-418, looked up)
Alpha-1-antitrypsin: EDPQGDAAQKTDTSHHDQDHPTFNKITPNLAEFAFSLYRQLAHQSNSTNIFFSPVSIATAFAMLSLGTKADTHDEILEGLNFNLTEIPEAQIHEGFQELLRTLNQPDSQLQLTTGNGLFLSEGLKLVDKFLEDVKKLYHSEAFTVNFGDTEEAKKQINDYVEKGTQGKIVDLVKELDRDTVFALVNYIFFKGKWERPFEVKDTEEEDFHVDQVTTVKVPMMKRLGMFNIQHCKKLSSWVLLMKYLGNATAIFFLPDEGKLQHLENELTHDIITKFLENEDRRSASLHLPKLSITGTYDLKSVLGQLGITKVFSNGADLSGVTEEAPLKLSKAVHKAVLTIDEKGTEAAGAMFLEAIPMSIPPEVKFNKPFVFLMIEQNTKSPLFMGKVVNPTQK
- Mean Survival Time (ovarian cancer mice, group mean, study still ongoing): 165.2 days
- mean days of the death (mean survival time) (vehicle 128.5 days, study ongoing): 165.2 days
